Values of other authors in patent US20080033027A1, “Drug combination pharmaceutical compositions and methods for using them” (VICUS THERAPEUTICS SPE 1, LLC, priority 2005, published 2008).

Sequences of proteins named here, by UniProt entry; tags and fusion partners are left off.
UniProt P08588, whole entry: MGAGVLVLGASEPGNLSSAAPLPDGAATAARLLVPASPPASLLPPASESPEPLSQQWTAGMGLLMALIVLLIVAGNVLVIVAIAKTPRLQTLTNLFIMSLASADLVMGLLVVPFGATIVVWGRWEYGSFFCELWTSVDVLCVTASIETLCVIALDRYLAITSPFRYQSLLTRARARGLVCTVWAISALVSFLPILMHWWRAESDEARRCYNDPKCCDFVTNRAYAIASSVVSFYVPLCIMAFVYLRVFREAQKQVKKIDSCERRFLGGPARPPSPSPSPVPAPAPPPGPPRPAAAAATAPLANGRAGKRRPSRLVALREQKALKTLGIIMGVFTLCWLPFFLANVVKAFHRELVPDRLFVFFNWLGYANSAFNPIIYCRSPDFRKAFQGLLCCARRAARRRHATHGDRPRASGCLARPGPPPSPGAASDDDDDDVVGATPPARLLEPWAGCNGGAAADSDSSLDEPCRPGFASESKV

Experiments:
beta 1 receptor subtypes = beta 1 receptor subtypes (Homo sapiens, UniProt P08588); settings: higher than propranolol

relative activity against beta 1 receptor subtypes as compared to a nonselective beta blocker such as propranolol (beta 1 receptor subtypes): approximately 16 fold
Biotransformation (in vivo): Hepatic
Removable by Hemodialysis (in vivo): Yes
Compound: CC(C)NCC(O)COc1ccc(CC(N)=O)cc1 (stereo not shown) [Atenolol]
route of elimination (stated in the text): eliminated primarily by the kidneys through the urine
